This is an account of results in ChEMBL document CHEMBL5360528, “A systematic review on the kappa opioid receptor and its ligands: New directions for the treatment of pain, anxiety, depression, and drug abuse” (Eur J Med Chem, 2022).

By UniProt entry, the sequences of proteins in these tests, tags left out. Where a name states a change or a piece, a line headed by the entry shows the natural chain unless it says otherwise.
UniProt P35372, whole entry, looked up: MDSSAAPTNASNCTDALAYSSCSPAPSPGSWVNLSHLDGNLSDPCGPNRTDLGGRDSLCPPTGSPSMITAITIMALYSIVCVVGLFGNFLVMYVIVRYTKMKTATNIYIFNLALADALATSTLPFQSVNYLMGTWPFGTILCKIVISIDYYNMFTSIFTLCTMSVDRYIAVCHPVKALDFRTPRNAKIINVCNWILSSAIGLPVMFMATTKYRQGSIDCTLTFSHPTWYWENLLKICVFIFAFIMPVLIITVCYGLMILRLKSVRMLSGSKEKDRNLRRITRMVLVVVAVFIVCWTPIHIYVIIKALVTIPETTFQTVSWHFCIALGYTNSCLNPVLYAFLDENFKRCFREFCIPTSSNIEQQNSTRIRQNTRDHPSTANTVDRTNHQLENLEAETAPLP
UniProt P41144: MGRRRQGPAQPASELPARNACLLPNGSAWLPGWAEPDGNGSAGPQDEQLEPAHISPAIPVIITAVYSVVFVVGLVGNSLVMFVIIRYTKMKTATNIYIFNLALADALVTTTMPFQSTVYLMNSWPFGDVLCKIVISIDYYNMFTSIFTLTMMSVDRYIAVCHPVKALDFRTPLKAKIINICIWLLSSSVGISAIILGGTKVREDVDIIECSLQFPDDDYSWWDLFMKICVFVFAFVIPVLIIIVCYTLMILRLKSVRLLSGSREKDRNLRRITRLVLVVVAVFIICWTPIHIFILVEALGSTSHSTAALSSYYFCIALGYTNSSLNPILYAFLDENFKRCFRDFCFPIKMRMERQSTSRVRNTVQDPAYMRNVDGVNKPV
UniProt P41145: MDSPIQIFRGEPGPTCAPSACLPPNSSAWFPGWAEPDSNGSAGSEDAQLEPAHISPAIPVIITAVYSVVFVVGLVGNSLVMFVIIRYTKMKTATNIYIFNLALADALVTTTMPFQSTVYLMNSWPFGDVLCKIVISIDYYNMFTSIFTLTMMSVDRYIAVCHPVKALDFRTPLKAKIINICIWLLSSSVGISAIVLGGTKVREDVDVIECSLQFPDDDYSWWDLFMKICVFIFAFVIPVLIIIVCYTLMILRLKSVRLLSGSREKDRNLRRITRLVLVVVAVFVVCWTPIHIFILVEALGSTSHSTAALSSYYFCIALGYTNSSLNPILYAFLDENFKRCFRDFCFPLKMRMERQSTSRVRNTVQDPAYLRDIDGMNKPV

Structures are written as SMILES.

One assay has as its target Mu-type opioid receptor (Homo sapiens, UniProt P35372). Briefly: Binding affinity to MOR (unknown origin) assessed as inhibition constant by radioligand binding assay.
The target of assay [1] is T1, Kappa-type opioid receptor (Cavia porcellus, UniProt P41144). In words: Agonist activity at KOR in guinea pig brain membranes assessed as stimulation of [35S]GTPgammaS binding measured after 1 hr by liquid scintillation counting analysis. (In general: Binding of GTPγS marks nucleotide exchange on a G protein.)
Assay [2] has as its target T1, Kappa-type opioid receptor. Briefly: Binding affinity to KOR in Guinea pig brain assessed as inhibition constant.
For assay [3], the target named is T2, Kappa-type opioid receptor (Homo sapiens, UniProt P41145). In words: Agonist activity at human KOR expressed in CHO cell membranes by beta-arrestin translocation assay.
Assay [4] addresses T2, Kappa-type opioid receptor. Briefly: Binding affinity to KOR receptor (unknown origin) assessed as inhibition constant.
Another assay deals with Mus musculus. Briefly: Antinociceptive activity in CD-1 mouse assessed as maximum possible effect at 10 nmol, icv measured after 15 mins by tail-flick test. The settings on record: 0.25 h. For orientation: Thermal pain tests record how soon the animal reacts.

In the case of `CN(C(=O)Cc1ccc(Cl)c(Cl)c1)C1CCCCC1N1CCCC1` (stereo unspecified), the Ki at Mu-type opioid receptor amounted to 370 nM. `COC(=O)[C@@H]1C[C@H](OC(C)=O)C(=O)[C@H]2[C@@]1(C)CC[C@H]1C(=O)O[C@H](c3ccoc3)C[C@]21C` [listing 1 of 2 here]: in assay [1], the Ki was more than 5000 nM. For `COC(=O)[C@@H]1C[C@H](OC(C)=O)C(=O)[C@H]2[C@@]1(C)CC[C@H]1C(=O)O[C@H](c3ccoc3)C[C@]21C` [listing 2 of 2 here], the inhibitory constant (Ki) in assay [2] came out at 4.3 nM.

`CN(C(=O)Cc1ccc(Cl)c(Cl)c1)C1CCC2(CCCO2)CC1N1CCCC1` (stereo unspecified): a half-maximal response in assay [3] (EC50) required 1.01 nM. Further, the Ki in assay [4] was found to be 8.6 nM. For the same compound, in the assay on Mus musculus, the ED50 came out at 10.3 pmol.

As a reminder, the Ki is a measure of affinity in units of concentration, obtained from inhibition or displacement. The EC50 is the concentration that produces a half-maximal response.
